# Earlier results as cited in US20250195714A1, “DEVICES AND METHODS OF TREATING WOUNDS” (University of Massachusetts, priority 2022, published 2025).
# Tested on: keratinocyte and fibroblast cell cultures
# Settings: prolonged exposure; cited from earlier work
smiles,measurement,value
"NC[C@H]1CC[C@H](C(=O)O)CC1 [TXA, tranexamic acid]",cytotoxicity,can be cytotoxic
